Experimental data taken from PMC7488288, “Understanding and Improving the Membrane Permeability of VH032-Based PROTACs” (ACS Medicinal Chemistry Letters, 2020).

How the values were obtained:
in vitro = details: PAMPA, pH 7.4, PAMPA permeability (Pe)
VHL = molecular target: T1, VHL (Homo sapiens, UniProt P40337); experiment: Fluorescence polarization (FP) competitive binding assay; details: 15 nM VCB protein, 10 nM FAM-labeled HIF-1α peptide JC9, read-out: Kd (FP-derived)
T1 construct: each well solution containing 15 nM VCB

Compound | Papp at 7 h (in vitro) [×10⁻⁶ cm/s] | pKd (VHL)
Cc1ncsc1-c1ccc(CNC(=O)[C@@H]2C[C@@H](O)CN2C(=O)[C@@H](OC(=O)Cc2ccccc2)C(C)(C)C)cc1 [Compound 3] | 16 | –
Cc1ncsc1-c1ccc(CNC(=O)[C@@H]2C[C@@H](O)CN2C(=O)[C@@H](NC(=O)Cc2ccccc2)C(C)(C)C)cc1 [Compound 4] | – | 6.35

pKd: −log10 of the molar value.
